Biological target: Metabotropic glutamate receptor 2 (Homo sapiens, UniProt Q14416)
Assay: Biological Assay: The utility of the compounds in accordance with the present invention as antagonists of metabotropic glutamate receptor activity, in particular mGluR2 activity, may be demonstrated by methodology known in the art. Antagonist constants are determined as follows. The compounds of the present invention were tested in a fluorescence laser imaging plate reader based assay. This assay …
Format: cell-based

Sequences of proteins named here, by UniProt entry; tags and fusion partners are left off. A change or cut given only in a name is not applied to a line headed by its entry.
UniProt Q14416: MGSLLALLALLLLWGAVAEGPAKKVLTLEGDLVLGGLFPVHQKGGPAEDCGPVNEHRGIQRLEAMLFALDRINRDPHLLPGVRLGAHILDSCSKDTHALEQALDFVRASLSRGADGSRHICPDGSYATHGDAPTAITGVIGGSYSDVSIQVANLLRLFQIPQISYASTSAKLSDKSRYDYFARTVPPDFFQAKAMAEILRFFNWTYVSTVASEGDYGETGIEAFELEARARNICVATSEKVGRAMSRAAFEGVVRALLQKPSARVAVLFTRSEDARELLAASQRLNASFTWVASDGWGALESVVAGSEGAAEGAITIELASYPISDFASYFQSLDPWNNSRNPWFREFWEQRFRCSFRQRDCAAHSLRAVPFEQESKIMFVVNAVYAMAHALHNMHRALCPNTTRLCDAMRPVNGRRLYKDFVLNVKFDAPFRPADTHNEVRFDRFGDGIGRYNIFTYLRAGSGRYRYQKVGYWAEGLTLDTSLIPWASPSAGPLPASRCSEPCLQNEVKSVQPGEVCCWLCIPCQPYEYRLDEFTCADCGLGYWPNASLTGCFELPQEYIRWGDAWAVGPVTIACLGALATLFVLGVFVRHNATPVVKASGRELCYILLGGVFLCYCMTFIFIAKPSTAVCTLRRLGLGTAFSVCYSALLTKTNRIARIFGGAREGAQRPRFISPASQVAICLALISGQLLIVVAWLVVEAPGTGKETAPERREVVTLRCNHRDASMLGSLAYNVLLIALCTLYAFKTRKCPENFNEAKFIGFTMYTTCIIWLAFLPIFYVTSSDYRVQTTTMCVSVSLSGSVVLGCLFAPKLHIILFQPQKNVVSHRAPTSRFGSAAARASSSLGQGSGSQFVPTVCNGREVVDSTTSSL

IC50 [nM] | Structure (SMILES)
14 | COC(=O)c1cc(-c2cnn(C)c2)c2ccc(CN3CCO[C@@H](C(F)(F)F)C3)c(F)c2n1
21 | COC(=O)c1cc(-c2cnn(C)c2)c2ccc(CN3CCO[C@H](C(F)(F)F)C3)c(F)c2n1

— ChEMBL document CHEMBL3886589, “Quinoline carboxamide and quinoline carbonitrile derivatives as mGluR2-negative allosteric modulators, compositions, and their use” (2016)
